Assay results published in PubChem BioAssay AID1032 (The Scripps Research Institute Molecular Screening Center, 2008).
This is a selection; strong and weak results do not stand in their true shares. Activity calls are given as the source filed them. Cut-off read from the data, not from the text of the source: active = activation above about 22%; inactive = the rest.

Amino acid sequences for entries named in this document (tags omitted). Residues count along the entry.
UniProt P37231, 232-505 limits assumed: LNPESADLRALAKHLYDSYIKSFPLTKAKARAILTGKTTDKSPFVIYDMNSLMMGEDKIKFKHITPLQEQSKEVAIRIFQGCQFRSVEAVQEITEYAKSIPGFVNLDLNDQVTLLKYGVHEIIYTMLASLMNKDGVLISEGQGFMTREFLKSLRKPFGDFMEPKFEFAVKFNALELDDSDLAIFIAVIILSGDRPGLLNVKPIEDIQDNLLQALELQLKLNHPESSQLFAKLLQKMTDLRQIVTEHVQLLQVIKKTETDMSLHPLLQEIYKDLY
UniProt Q15596, whole entry partner: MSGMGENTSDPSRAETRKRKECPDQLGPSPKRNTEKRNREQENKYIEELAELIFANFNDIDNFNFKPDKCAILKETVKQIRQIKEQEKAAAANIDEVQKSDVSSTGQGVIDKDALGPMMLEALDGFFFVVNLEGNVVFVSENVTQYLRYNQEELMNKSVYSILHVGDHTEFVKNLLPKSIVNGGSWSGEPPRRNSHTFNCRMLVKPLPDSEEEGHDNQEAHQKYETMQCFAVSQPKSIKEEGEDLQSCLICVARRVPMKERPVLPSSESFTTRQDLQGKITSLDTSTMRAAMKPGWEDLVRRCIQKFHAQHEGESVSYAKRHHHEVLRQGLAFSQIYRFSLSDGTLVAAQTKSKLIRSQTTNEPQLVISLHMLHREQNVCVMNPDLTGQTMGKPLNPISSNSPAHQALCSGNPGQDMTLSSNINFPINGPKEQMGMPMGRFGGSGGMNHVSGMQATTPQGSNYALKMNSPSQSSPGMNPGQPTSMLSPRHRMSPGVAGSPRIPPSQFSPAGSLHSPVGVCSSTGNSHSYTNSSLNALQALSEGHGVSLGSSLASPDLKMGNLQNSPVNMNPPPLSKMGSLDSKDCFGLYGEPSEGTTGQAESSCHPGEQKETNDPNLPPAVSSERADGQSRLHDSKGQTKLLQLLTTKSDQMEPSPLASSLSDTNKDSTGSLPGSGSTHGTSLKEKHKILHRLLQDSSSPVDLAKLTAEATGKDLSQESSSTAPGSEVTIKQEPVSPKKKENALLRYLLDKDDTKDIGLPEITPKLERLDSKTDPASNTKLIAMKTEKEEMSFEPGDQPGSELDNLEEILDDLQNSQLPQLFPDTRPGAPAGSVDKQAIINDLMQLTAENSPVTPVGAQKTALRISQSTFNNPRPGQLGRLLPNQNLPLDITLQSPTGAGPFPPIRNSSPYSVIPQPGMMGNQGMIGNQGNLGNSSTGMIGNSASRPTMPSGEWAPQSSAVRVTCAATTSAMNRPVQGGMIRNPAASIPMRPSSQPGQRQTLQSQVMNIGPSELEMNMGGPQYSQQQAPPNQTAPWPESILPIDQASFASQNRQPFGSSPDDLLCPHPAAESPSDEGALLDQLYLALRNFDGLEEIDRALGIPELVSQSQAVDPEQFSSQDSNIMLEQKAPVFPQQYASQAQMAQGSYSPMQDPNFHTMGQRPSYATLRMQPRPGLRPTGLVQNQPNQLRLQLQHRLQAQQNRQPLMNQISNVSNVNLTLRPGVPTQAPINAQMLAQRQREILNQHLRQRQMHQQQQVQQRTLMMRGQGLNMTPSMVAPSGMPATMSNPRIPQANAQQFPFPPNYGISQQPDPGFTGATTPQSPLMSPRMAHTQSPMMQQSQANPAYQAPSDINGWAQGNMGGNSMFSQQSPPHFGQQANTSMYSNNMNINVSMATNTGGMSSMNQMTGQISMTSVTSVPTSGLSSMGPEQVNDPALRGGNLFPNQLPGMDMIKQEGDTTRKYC

What follows are compounds tested against Peroxisome proliferator-activated receptor gamma (Homo sapiens) (UniProt P37231) (assay: compounds enhancing SRC-2 coactivator binding to PPARgamma – biochemical, HTS, primary screen (AID 1032;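 note: 0% = vehicle and 100% = reference agonist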)). Settings: PPARgamma LBD-SRC-2 recruitment, at 8 µM, stronger effect = higher value.

SMILES | activation
COc1ccc(OP(C)(=O)Nc2ccc(SC(F)(F)F)cc2)cc1 (stereo unspecified) | inactive: -0.96%
CP(=O)(Nc1ccccc1)Oc1ccc(F)cc1 (stereo unspecified) | inactive: 2.62%
CCN(CC)CCCOC(=O)C(O)(c1ccccc1)C1CCCCC1 (stereo unspecified) | inactive: 3.14%
CN(C)CCOC(=O)C(O)(c1ccccc1)C1CCCCC1 (stereo unspecified) | inactive: 4.65%
COc1ccc(NP(C)(=O)Oc2ccccc2OC)cc1 (stereo unspecified) | inactive: 1.59%
COc1ccc(OP(C)(=O)Nc2cccc(Br)c2)cc1 (stereo unspecified) | inactive: -0.26%
O=[N+]([O-])c1cc([N+](=O)[O-])c(NCC2CCS(=O)(=O)C2)c([N+](=O)[O-])c1 (stereo unspecified) | inactive: 4.12%
CCOP(C)(=S)SCC(=O)NC(C)(CC)C(=O)O (stereo unspecified) | inactive: 5.32%
Cc1ccccc1NP(C)(=O)Nc1ccccc1C | inactive: 1.7%
CP(=O)(Nc1ccc2c(c1)OCCO2)Oc1ccccc1 (stereo unspecified) | inactive: 0.85%
O=[N+]([O-])c1cc([N+](=O)[O-])c(-n2nnc3ccccc32)c([N+](=O)[O-])c1 | inactive: 6.83%
Cc1nc2ccc3ccccc3c2s1.O=[N+]([O-])c1cc([N+](=O)[O-])c(O)c([N+](=O)[O-])c1 | inactive: 3.31%
CP(=O)(Nc1ccc(SC(F)(F)F)cc1)Oc1ccccc1 (stereo unspecified) | inactive: 9.82%
CCCOc1ccc(NP(C)(=O)Oc2ccc(Cl)cc2)cc1 (stereo unspecified) | inactive: -13.9%
COc1ccccc1OP(C)(=O)Nc1c(C)cccc1C (stereo unspecified) | inactive: -0.78%
CN1CCCCC1COC(=O)C1(O)c2ccccc2CCc2ccccc21 (stereo unspecified) | inactive: -1.34%
CC1=NCCc2c1[nH]c1ccccc21.O=[N+]([O-])c1cc([N+](=O)[O-])c(O)c([N+](=O)[O-])c1 | inactive: 9.06%
CCOC(=O)c1ccc(NP(C)(=O)Oc2cc(C)cc(C)c2)cc1 (stereo unspecified) | inactive: -1.71%
Cc1cc(C)cc(OP(C)(=O)Nc2ccc(C)cc2C)c1 (stereo unspecified) | inactive: 2.33%
Cc1ccc(C)c(NP(C)(=O)Oc2ccccc2)c1 (stereo unspecified) | inactive: -0.6%
CP(=O)(Nc1cccc(Br)c1)Oc1ccccc1 (stereo unspecified) | inactive: 3.09%

SMILES | activation
Cc1cc(C)cc(OP(C)(=O)Nc2ccccn2)c1 (stereo unspecified) | inactive: 0.5%
CCN(CC)CCCOC(=O)C(O)(c1ccccc1)c1ccccc1 | inactive: 5.26%
O=[N+]([O-])c1ccc2c(c1)C=Nc1ccccc1O2 | inactive: 0.13%
CC(C)(C)c1ccc(OP(C)(=O)Nc2ccc(SC(F)(F)F)cc2)cc1 (stereo unspecified) | inactive: -4.1%
Cc1cccc(C)c1OP(C)(N)=O (stereo unspecified) | inactive: 2.77%
Cc1cc(C)cc(OP(C)(N)=O)c1 (stereo unspecified) | inactive: 3.31%
COc1ccc(OP(C)(=O)Nc2cccc(F)c2)cc1 (stereo unspecified) | inactive: 2.05%
COc1ccccc1OP(C)(=O)Nc1ccc(C)cc1 (stereo unspecified) | inactive: 6.29%
Cc1ccc(NP(C)(=O)Oc2ccccc2)c(C)c1 (stereo unspecified) | inactive: 4.41%
CCOC(=O)c1ccc(NP(C)(=O)Oc2ccccc2)cc1 (stereo unspecified) | inactive: 0.7%
CP(=O)(Nc1ccccc1Br)Oc1ccccc1 (stereo unspecified) | inactive: 12.1%
COc1ccccc1OP(C)(=O)Nc1ccccc1 (stereo unspecified) | inactive: 7.48%
CP(=S)(Nn1cnnc1)Oc1ccccc1 (stereo unspecified) | inactive: 10.3%
CP(=O)(NC(=O)Nc1ccccc1)Oc1ccccc1 (stereo unspecified) | inactive: 0.04%
Cc1cc(C)cc(OP(C)(=O)Nc2ccc(SC(F)(F)F)cc2)c1 (stereo unspecified) | inactive: -5.44%
Cc1cccc(C)c1OP(C)(=O)Nc1ccc(SC(F)(F)F)cc1 (stereo unspecified) | inactive: -0.62%
CP(=O)(Oc1ccccc1)OC(c1ccccc1)C(F)(F)F (stereo unspecified) | inactive: 7.27%
CP(=O)(Nc1ccccn1)Oc1ccc(Cl)cc1 (stereo unspecified) | inactive: 7.32%
CCOC(=O)c1ccc(NP(C)(=O)Oc2ccc(OC)cc2)cc1 (stereo unspecified) | inactive: 6.53%
CCOP(C)(=S)SCC(=O)NC(C)C(=O)O (stereo unspecified) | inactive: 8.2%
